Consider eleven compounds from PubChem BioAssay AID1347070 (National Center for Advancing Translational Sciences (NCATS), 2019).

The list shows a part of the results, in another mix than the full data. Calls of active or inactive are those of the source. Calls follow the shape of the dose curve; as a rule, active = well fitted activation curve with a large enough effect; inconclusive = small, poorly fitted or top-dose-only effect; inactive = flat fitted curve, though single readings scatter.

The assay in a line: qHTS of alpha-syn Inhibitors: NCGC Sytravon Library Screen. Also: 0% is about no effect. Particulars: S. cerevisiae alpha-synuclein toxicity rescue, BacTiter-Glo growth, 24 h; at 46.1 µM (top of the series). The text has this: The goal of this project is to identify new chemical probes capable of reversing the toxicity associated with the Parkinson disease-related protein, alpha-synuclein. Compounds will be selected on their ability to restore growth in yeast cells expressing toxic levels of alpha-synuclein. These compounds will provide a complementary approach to deciphering the tangled mechanisms of toxicity and protection that we have uncovered through genome-wide genetic screens and are beginning to uncover in a large-scale proteomics analysis with mass spectroscopy. To this end, a miniaturized assay was developed to be screened against the Molecular Libraries Small Molecule Repository (MLSMR) to discover alpha-synuclein inhibitors. […] The phenotype of interest will be that of an Activator and this screen is run against the NCGC Sytravon Library collection. NIH Chemical Genomics Center [NCGC] NIH Molecular Libraries Probe Centers Network [MLPCN] MLPCN Grant: NS060957 Assay Submitter (PI): Susan Lindquist, Whitehead Institute/MIT
Dispense 2.5 microL yeast galactose medium per 1536-well plate, pin compound, dispense 2.5 microL alpha-synuclein expressing yeast in galactose medium at OD600=0.02 (pregrown in raffinose medium to mid-log phase) per well, incubate for 24 hr at 30 deg C, and cell growth will be measured using 5 microL of Bactiter/Glo reagent to entire plate and read using Luminescence Protocol in ViewLux.
As for `CP(=O)(Nc1ccccc1Br)Oc1ccccc1` (stereo unspecified), the growth rescue (activation) was inactive: -2.81%.
To `COc1ccccc1OP(C)(=O)Nc1cc(Cl)ccc1C` (stereo unspecified) belongs inactive: -50.5%; to `Cc1cc(C)cc(OP(C)(N)=O)c1` (stereo unspecified), inactive: -18.4%.
To `Cc1ccc(NP(C)(=O)Oc2ccccc2)c(C)c1` (stereo unspecified) belongs inactive: 9.17%; to `CP(=O)(Nc1ccc(SC(F)(F)F)cc1)Oc1ccccc1` (stereo unspecified), inactive: 8.65%; to `CCCOc1ccc(NP(C)(=O)Oc2ccc(Cl)cc2)cc1` (stereo unspecified), inactive: 13.4%.
To `Cc1cc(-c2cccc3ccccc23)c(C)cn1.O=[N+]([O-])c1cc([N+](=O)[O-])c(O)c([N+](=O)[O-])c1` belongs inactive: -9.16%; to `O=[N+]([O-])c1ccc(OP2(=O)COCCO2)cc1` (stereo unspecified), inactive: -4.96%.
As for `COc1ccc(NP(C)(=O)Oc2ccccc2OC)cc1` (stereo unspecified), the growth rescue (activation) is inactive: -1.24%.
To `COc1ccc(OP(C)(=O)Nc2ccc(SC(F)(F)F)cc2)cc1` (stereo unspecified) belongs inactive: 1.59%; to `COc1ccccc1OP(C)(=O)Nc1ccc(Br)cc1` (stereo unspecified), inactive: 5.54%.
